Measured values from US20190314361A1 (Athenex Therapeutics Limited, priority 2018, published 2019).

Tests used:
[1] = Paclitaxel pharmacokinetics in rats after single oral dose with Compound A; assay type: in vivo, rat
[2] = dogs, single oral dose paclitaxel 6 mg/kg with Compound A 3 mg/kg
[3] = Paclitaxel pharmacokinetics in dogs after single oral dose with Compound A; assay type: in vivo, dog
[4] = single oral dose paclitaxel 2 mg/kg with Compound A
[5] = single oral dose paclitaxel 4 mg/kg with Compound A
[6] = single oral dose paclitaxel 6 mg/kg with Compound A

SMILES: CC(=O)O[C@H]1C(=O)[C@@]2(C)[C@H]([C@H](OC(=O)c3ccccc3)[C@]3(O)C[C@H](OC(=O)[C@H](O)[C@@H](NC(=O)c4ccccc4)c4ccccc4)C(C)=C1C3(C)C)[C@]1(OC(C)=O)CO[C@@H]1C[C@@H]2O [Paclitaxel, 5,20-Epoxy-1,2,4,7,10-13-hexahydroxytax-11-en-9-one-4,10-diacetate 2-benzoate 13-ester with (2R,3S)—N-benzoyl-3-phenylisoserine]
- t1/2 Paclitaxel ([1]; single oral dose paclitaxel 5 mg/kg with Compound A): 8.2 h
- t1/2 Paclitaxel ([1]; single oral dose paclitaxel 10 mg/kg with Compound A): 8.7 h
- t1/2 Paclitaxel ([1]; single oral dose paclitaxel 20 mg/kg with Compound A): 7.5 h
- Cmax ([2]; Fasted): 683.6 ± 174.8 ng/mL
- AUC Fed/ AUCFasted Ratio [2]: 53.1
- Cmax Paclitaxel [3, 4]: 128 ng/mL
- t1/2 Paclitaxel [3, 4]: 7.4 h
- Cmax Paclitaxel [3, 5]: 661 ng/mL
- t1/2 Paclitaxel [3, 5]: 8.1 h
- Cmax Paclitaxel [3, 6]: 1109 ng/mL
- t1/2 Paclitaxel [3, 6]: 7.3 h
